Compound activity from PubChem BioAssay.
CDK5 p35 inh: inhibitors of human CDK5/p35 kinase | Recombinant CDK5/p35, ADP-Glo luminescence, 60 min | inhibition, % at 10 µM | Q00535+Q15078 | AID 488839 | 0.01% of 330,000 active;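 active means highest replicate inhibition of at least 50% and at least 75% of replicates reaching 50%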;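 further: plate controls were DMSO neutral control for no effect and GW8510 at 10 µM for full effect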
Cneo AK release: Cryptococcus neoformans lysis via adenylate kinase release | lysis activity, % at 15 µM | C. neoformans lysis, adenylate kinase release luminescence, 4 h; normalised: neutral wells 0, clomiphene wells 100 | 0.2% of 360,000 active | AID 651654;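 active means mean lysis activity across replicates of at least 80%, whatever share of replicates individually reach that level; inactive means mean lysis activity below 80%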
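Material: C. neoformans cells | Amount: Yeast cell density of 5 × 10^6 cells/mL | Medium: Fresh YPD growth medium | Dosing: Single dose | Times: Static 4 h at 37 °C with compound, 1 h detection | Detection: AK luminescence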
Rtt109 Vps75: inhibitors of Candida albicans Rtt109/Vps75 histone acetyltransferase; Q5AAJ8; purified Rtt109/Vps75, ThioGlo CoA-SH fluorescence, 4 h; inhibition, % at 34.9 µM; 0.16% of 330,000 active;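 active means inhibition of at least 50% in every replicate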
Yeast UUG start: modulators of start codon recognition fidelity in yeast; S. cerevisiae UUG-firefly luciferase reporter, luminescence/redox ratio; AID 602363; 350,000 tested, 0.13% active; activity score, % at 18.7 µM;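 active = replicate mean at a twofold rise or more, about +100% in these data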;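 also: firefly luciferase made from a UUG start codon reports start codon fidelity; reporter light over untreated wells divided by growth signal over untreated wells; some hits fall short of that in this replicate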
Statin myotox sup: suppression of simvastatin myotoxicity | C2C12 myotubes + simvastatin, ATP luminescence, 48 h; scaled: DMSO 0, geranylgeraniol control 100 | rescue of ATP level, % at 7.49 µM | 0.78% of 330,000 active;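 active means mean ATP rescue above about 67%, or every replicate alone reaching that limit, limit read from the data, passing the limit was not always enough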;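 further: myotubes were challenged with 10 µM simvastatin during compound exposure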
* = called active by the depositor; / = no result given. This is a sample that favours compounds with a hit; in the whole collection about 1% have one here.

Second line of a record: CDK5 p35 inh, Cneo AK release, Rtt109 Vps75, Yeast UUG start, Statin myotox sup
1. O=C(O)COc1c(-c2ccccc2)oc2ccccc2c1=O
    -3, 6, 3, -19, 75*
2. C[C@@H]1CN([C@@H](C)CO)C(=O)c2cc(NC(=O)c3ccccc3)ccc2O[C@@H](C)CCCCO[C@H]1CN(C)Cc1ccc2c(c1)OCO2
    /, 1, /, 8, /
3. O=C(C[C@@H]1CC[C@@H]2[C@H](COC[C@@H](O)CN2C(=O)Nc2ccc(Cl)cc2)O1)NC1Cc2ccccc2C1
    /, 109*, /, /, -8
4. O=C(C[C@H]1CC[C@H]2[C@@H](COC[C@H](O)CN2C(=O)Nc2ccccc2)O1)NC1Cc2ccccc2C1
    /, -6, /, 19, -2
5. C[C@H](NC(=O)C[C@@H]1CC[C@@H]2[C@H](COC[C@@H](O)CN2C(=O)Nc2cccc(F)c2)O1)c1ccccc1
    /, 90*, /, 15, -17
6. C[C@H](NC(=O)C[C@H]1CC[C@H]2[C@@H](COC[C@H](O)CN2C(=O)Nc2cccc(F)c2)O1)c1ccccc1
    /, -8, /, 34, -12
7. CO[C@H]1CN(C)C(=O)c2ccc(NC(=O)C3CC3)cc2OC[C@H](C)N(C(=O)c2ccncc2)C[C@H]1C
    /, 0, /, /, 1
8. O=c1oc2ccccc2c(Nc2ccc(O)cc2)c1[N+](=O)[O-]
    -1, -1, 2, -28, 133*
9. Cc1ccc(Nc2c([N+](=O)[O-])c(=O)oc3ccccc23)cc1
    2, /, 7, /, /
10. CC(C)CC1(C)NC(=O)NC1=O (configuration not stated)
    -1, 5, 0, -9, 117*
11. CC1(CCc2ccccc2)NC(=O)NC1=O (configuration not stated)
    -3, /, -17, /, -4
12. COc1ccc(NC(=O)Nc2ccc3c(c2)[C@@H]2C[C@H](CC(=O)NCc4ccccc4F)O[C@@H](CO)[C@@H]2O3)cc1
    /, -9, /, -2, -5
13. CO[C@H]1CN(C)C(=O)c2ccc(NC(=O)c3ccccc3F)cc2OC[C@@H](C)NC[C@@H]1C
    /, 0, /, -4, 18
14. CCOc1ccc(CNn2nnnc2N)cc1
    0, 1, -1, -23, 119*
15. c1ccc(-c2ncc(CN3CCN(c4ccccn4)CC3)[nH]2)cc1
    1, -1, 4, -14, 79*

In the list so far, these have nitrogen in an aromatic ring:
Second line of a record: CDK5 p35 inh, Cneo AK release, Rtt109 Vps75, Yeast UUG start, Statin myotox sup
7. CO[C@H]1CN(C)C(=O)c2ccc(NC(=O)C3CC3)cc2OC[C@H](C)N(C(=O)c2ccncc2)C[C@H]1C
    /, 0, /, /, 1
14. CCOc1ccc(CNn2nnnc2N)cc1
    0, 1, -1, -23, 119*
15. c1ccc(-c2ncc(CN3CCN(c4ccccn4)CC3)[nH]2)cc1
    1, -1, 4, -14, 79*

The listing continues.
Second line of a record: CDK5 p35 inh, Cneo AK release, Rtt109 Vps75, Yeast UUG start, Statin myotox sup
16. c1ccc(N2CCN(Cc3nc4ccccc4[nH]3)CC2)nc1
    -3, 19, 3, -13, 9
17. S=C(Nc1ccc(Cl)cc1Cl)Nc1ccccc1Oc1ccccc1
    -1, 360*, 2, -22, -9
18. COc1ccc(N(C(=O)c2snc(C(N)=O)c2N)C(C(=O)NC2CCCCC2)c2ccc(C)o2)cc1 (configuration not stated)
    -2, 1, -1, -23, 75*
19. O=C(NCC[C@H]1CC[C@@H](NS(=O)(=O)c2ccccc2)[C@H](CO)O1)c1ccccc1F
    /, -1, /, -6, -1
20. CCc1ccc(C(C)NC(=S)NCc2ccc(F)cc2)cc1 (configuration not stated)
    -1, 115*, 3, -34, -10
21. CCOc1ccc(C(C)NC(=S)NCc2ccc(F)cc2)cc1 (configuration not stated)
    1, 35, 10, -27, 3
22. C[C@@H]1CN([C@@H](C)CO)C(=O)c2cc(NC(=O)C3CC3)ccc2O[C@H]1CN(C)Cc1ccc2c(c1)OCO2
    /, 101*, /, 6, -27
23. COc1ccc(CN(C)C[C@@H]2Oc3ccc(NC(=O)C4CC4)cc3C(=O)N([C@H](C)CO)C[C@H]2C)cc1
    /, 106*, /, 8, 7
24. COc1ccc(CN(C)C[C@@H]2Oc3ccc(NC(=O)C4CC4)cc3C(=O)N([C@@H](C)CO)C[C@H]2C)cc1
    /, 92*, /, 15, 5
25. CCC(C)(C)NC(=O)CN(C(=O)CNS(=O)(=O)c1ccccc1)c1ccccc1
    1, 4, 13, -14, 101*
26. CN1C[C@@H]2[C@H](c3ccccc31)[C@H](CO)N2C(=O)Nc1ccccc1Cl
    /, 3, /, -15, 6
27. COC(=O)C1=C(C)NC(=O)CC1c1cc(Br)ccc1F (configuration not stated)
    0, -3, 1, -29, 111*
28. Cc1cc2c(cc1C)C(c1cc(Br)ccc1F)CC(=O)N2 (configuration not stated)
    -2, /, 11, /, /
29. CC1(C)C(c2ccc(Cl)cc2)=[N+]([O-])C2(CCCC/C2=N\O)N1O (configuration not stated)
    0, 2, -2, -24, 116*
